The chains behind the UniProt entries cited, without tags or fusion partners. Residues count along the entry.
UniProt P36897, 34-503 limits assumed: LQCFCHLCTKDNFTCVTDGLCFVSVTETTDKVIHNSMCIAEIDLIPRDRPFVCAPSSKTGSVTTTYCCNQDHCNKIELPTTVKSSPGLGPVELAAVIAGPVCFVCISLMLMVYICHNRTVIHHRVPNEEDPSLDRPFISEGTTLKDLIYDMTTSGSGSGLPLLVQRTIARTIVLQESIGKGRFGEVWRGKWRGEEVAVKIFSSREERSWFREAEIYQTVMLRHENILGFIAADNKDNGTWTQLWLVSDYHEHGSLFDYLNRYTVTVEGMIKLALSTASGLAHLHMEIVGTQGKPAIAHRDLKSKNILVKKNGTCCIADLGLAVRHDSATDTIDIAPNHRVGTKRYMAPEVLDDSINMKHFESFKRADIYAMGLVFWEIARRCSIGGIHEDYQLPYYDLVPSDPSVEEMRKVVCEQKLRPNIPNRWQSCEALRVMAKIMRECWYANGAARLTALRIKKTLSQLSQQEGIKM

According to patent US20110028472A1, “THIENOPYRIMIDINES” (MERCK PATENT CESELLSCHAFT MIT BESCHRANKTER HAFTUNG, priority 2008, published 2011):

Target: GST-ALK5 (Homo sapiens, UniProt P36897)
Test: In-vitro (enzyme) kinase assay, 384-well flashplate, inhibition of TGF-beta receptor I kinase
Conditions: read-out: Inhibition of TGF-beta IC50, 31.2 nM GST-ALK5, 439 nM GST-SMAD2, 3 mM ATP (33P-ATP), 30° C., 45 min
Method: In-Vitro (Enzyme) Assay for the Determination of the Efficacy of Inhibitors of the Inhibition of TGF-Beta-Promoted Effects Vermittelten Wirkungen
The kinase assay is carried out as 384-well flashplate assay. 31.2 nM of GST-ALK5, 439 nM of GST-SMAD2 and 3 mM of ATP (with 0.3 μCi of ^33P-ATP/well) are incubated in a total volume of 35 μl (20 mM of HEPES, 10 mM of MgCl, 5 mM of MnCl, 1 mM of DTT, 0.1% of BSA, pH 7.4) without or with test substance (5-10 concentrations) at 30° C. for 45 min. The reaction is stopped using 25 μl of 200 mM EDTA solution, filtered with suction at room temperature after 30 min, and the wells are washed with 3 times 100 μl of 0.9% NaCl solution. Radioactivity is measured in the TopCount. The IC50 values are calculated using RS1.

## Cc1cccc(-c2nc(C(C)(C)C)nc3sc(C(N)=O)c(N)c23)n1
  IC50: 74 nM
